# Results taken from patent US20090143469A1, “SALTS OF NATEGLINIDE” (priority 2002, published 2009).
# Assay: Solubility in water of nateglinide salts
# Assay type: physicochemical
substance,measurement,value
Lysine,Solubility Water,7100 µg/mL
same,water solubility compared with other forms (in words),comparable to that of the N-methyl-D-glucamine salt of nateglinide
